Measurements as given in US20130274233A1, “MODULATORS OF HEDGEHOG SIGNALING PATHWAY” (priority 2012, published 2013).
pEC50: −log10 of the molar value.

Chains of the proteins cited; added tags and fusions are not shown. Residues count along the entry.
UniProt Q99835, 28-787 limits assumed: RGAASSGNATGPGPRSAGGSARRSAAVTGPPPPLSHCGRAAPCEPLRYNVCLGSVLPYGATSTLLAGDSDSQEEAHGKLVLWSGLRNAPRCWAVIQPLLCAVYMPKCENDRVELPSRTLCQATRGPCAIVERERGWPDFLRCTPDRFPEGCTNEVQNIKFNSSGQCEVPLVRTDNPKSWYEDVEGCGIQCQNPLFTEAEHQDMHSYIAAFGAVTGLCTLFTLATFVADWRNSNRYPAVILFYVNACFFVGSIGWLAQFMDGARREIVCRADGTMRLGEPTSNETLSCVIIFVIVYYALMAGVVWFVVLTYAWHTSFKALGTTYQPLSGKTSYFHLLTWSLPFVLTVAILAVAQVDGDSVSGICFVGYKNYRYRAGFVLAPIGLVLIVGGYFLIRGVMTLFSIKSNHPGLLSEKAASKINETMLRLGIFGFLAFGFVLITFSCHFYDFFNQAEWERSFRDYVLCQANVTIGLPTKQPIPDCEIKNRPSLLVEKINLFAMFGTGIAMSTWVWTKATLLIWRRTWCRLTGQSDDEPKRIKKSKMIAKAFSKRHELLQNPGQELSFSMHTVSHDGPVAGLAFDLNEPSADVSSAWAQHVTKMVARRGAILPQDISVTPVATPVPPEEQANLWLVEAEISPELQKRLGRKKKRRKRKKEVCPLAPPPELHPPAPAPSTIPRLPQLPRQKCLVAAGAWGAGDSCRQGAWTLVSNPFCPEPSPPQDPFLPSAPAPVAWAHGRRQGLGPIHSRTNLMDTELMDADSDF

Target: Smo::EGFP (Homo sapiens, UniProt Q99835)
Assay: High content assay of Shh-induced Smo::EGFP accumulation in the primary cilium (Smo::EGFP/Ivs::tagRFPT NIH/3T3 cells)
Type: cell-based
Settings: Smo::EGFP/Ivs::tagRFPT cells primed with compounds for 3 hours before adding Shh; for pEC50: read-out: EC50, inhibitory activity of Smo cilial localization induced by Shh (SAR assays)

Compound	pEC50	Smo antagonist activity in SAR assays
CCCCN(C)CCC(=O)Nc1ccc(Br)cc1	4.73	
CN(CCC(=O)Nc1ccc(Br)cc1)Cc1ccccc1	5.64	
CN(CCC(=O)Nc1ccccc1)Cc1ccccc1	4.48	
O=C(CCN1CCCC1)Nc1ccc(Br)cc1	5.21	retained, but weaker, Smo antagonistic activity
